Patent US20240018102A1, “COMPOUNDS AND COMPOSITIONS FOR TREATING CONDITIONS ASSOCIATED WITH LPA RECEPTOR ACTIVITY” (Lhotse Bio, Inc., priority 2020, published 2024)

Sequences of proteins named here, by UniProt entry; tags and fusion partners are left off.
UniProt Q92633, whole entry: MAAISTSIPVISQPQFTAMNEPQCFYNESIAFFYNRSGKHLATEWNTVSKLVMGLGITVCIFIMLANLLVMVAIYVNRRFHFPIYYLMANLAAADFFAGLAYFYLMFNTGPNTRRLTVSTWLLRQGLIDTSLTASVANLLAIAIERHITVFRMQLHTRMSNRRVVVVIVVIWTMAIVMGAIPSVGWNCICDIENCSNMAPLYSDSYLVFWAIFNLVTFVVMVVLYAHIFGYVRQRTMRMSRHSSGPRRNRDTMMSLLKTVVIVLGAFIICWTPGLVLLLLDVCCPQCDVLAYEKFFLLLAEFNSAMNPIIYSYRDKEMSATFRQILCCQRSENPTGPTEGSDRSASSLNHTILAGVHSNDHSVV

Molecular target: human LPA1 (Homo sapiens, UniProt Q92633)
Test: In vitro LPA1 calcium flux antagonist assay, Bioduro protocol
Settings: read-out: IC50 (nM) in Assay B2; CHO-K1 cells overexpressing human LPA1 and G15a; LPA challenge at EC80; calcium mobilization on FLIPR Tetra
Method: In Vitro LPA1 Calcium Flux Antagonist Assay Bioduro Protocol
CHO-K1 cells overexpressing human LPA1 and G15a were seeded at a total volume of 20 uL (15000 cells/well) into Matrigel pre-coated 384-well plates (coming -3764) and incubated at 37° C. After overnight incubation, the cells were serum starved for 4 h. Assays were performed in dye loading buffer containing 1× Fluo-8 AM (AAT Bioquest, 21080) and 2.5 mM probenecid (Thermo Fisher, 36400) in HBSS/20 mM Hepes. After cell starvation, the medium was replaced with 20 uL of dye loading buffer and incubated at 37° C. for 30 min. Then 5 uL of 5× compound titrated in dye loading buffer was added to the cells and incubated for 30 min followed by LPA challenge at EC80. Calcium mobilization was measured on a FLIPR Tetra (MDS). For LPA EC80 determination, starved cells were incubated with 20 uL of dye loading buffer for 1 h, then 5 uL of 5×LPA titrated in dye loading buffer was added to the cells. Calcium signals induced by LPA was monitors on a FLIPR.
Percentage inhibition is calculated using the following formula:
% Inhibition=100%×(1−(mean RFU of test sample−mean RFU of DMSO)/(mean RFU of LPA control−mean RFU of DMSO)).

| Structure (SMILES) | IC50 [nM] |
| --- | --- |
| COc1cc([C@@H](O)[C@H](Cc2nc3c(C(=O)O)cccc3s2)OCC(C)C)cc(OC)c1C | 17.9 |
| COc1cc([C@@H](O)[C@H](Cc2nc(CC(=O)O)c(CC(C)C)s2)OC2CCCC2)cc(OC)c1C | 37.1 |
